One compound from patent publication US11691972B2, “Compounds for targeted degradation of BRD9” (C4 Therapeutics, Inc., priority 2020, dated 2023) can be followed below.

Chains of the proteins cited; added tags and fusions are not shown.
UniProt Q9H8M2, whole entry: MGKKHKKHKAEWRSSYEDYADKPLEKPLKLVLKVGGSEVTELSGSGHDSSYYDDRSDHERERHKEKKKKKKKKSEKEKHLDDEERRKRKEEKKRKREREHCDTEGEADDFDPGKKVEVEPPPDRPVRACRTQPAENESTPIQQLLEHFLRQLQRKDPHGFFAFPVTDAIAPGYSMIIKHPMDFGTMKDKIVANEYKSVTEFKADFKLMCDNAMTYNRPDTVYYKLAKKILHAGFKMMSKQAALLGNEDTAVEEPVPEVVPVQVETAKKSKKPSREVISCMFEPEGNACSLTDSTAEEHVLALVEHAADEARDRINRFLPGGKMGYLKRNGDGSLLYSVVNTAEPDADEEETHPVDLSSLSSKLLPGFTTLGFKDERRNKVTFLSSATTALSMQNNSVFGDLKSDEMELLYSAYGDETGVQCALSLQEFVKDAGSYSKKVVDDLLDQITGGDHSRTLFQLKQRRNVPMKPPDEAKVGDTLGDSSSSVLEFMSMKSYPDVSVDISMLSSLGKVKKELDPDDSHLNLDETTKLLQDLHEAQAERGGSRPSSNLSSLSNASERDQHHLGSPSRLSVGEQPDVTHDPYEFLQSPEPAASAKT

Bounds are passed on as bounds.

This test concerns the target BRD9 (Homo sapiens, UniProt Q9H8M2). Briefly: HiBiT BRD9 degradation assay in 293T.166 (BRD9-HiBiT) cells. As to conditions: read-out: HiBiT-Degradation 293T.166 BRD9 2.0 hours (DC50), Table 1, 293T.166 cells, class symbols, tested form: TFA. How it is done: Selected compounds were tested in a BRD9 degradation assay using the HiBit Method.
Dulbecco's modified Eagle medium (DMEM) without phenol red and fetal bovine serum (FBS) were purchased from Gibco (Grand Island, N.Y., USA). Nano-Glo® HiBiT Lytic Assay System was purchased from Promega (Madison, Wis., USA). 293T.166 (BRD9-HiBiT) cell line, endogenously expressing BRD9 with HiBiT fusion tag via CRISPR and ectopically expressing LgBiT tag, was purchased from Promega (Madison, Wis., USA). 293T.167 (BRD7-HiBiT) cell line, endogenously expressing BRD7 with HiBiT fusion tag via CRISPR and ectopically expressing LgBiT tag, was purchased from Promega (Madison, Wis., USA). 293T.92 (BRD4-HiBiT) cell line, endogenously expressing BRD4 with HiBiT fusion tag via CRISPR and ectopically expressing LgBiT tag, was generated in-house. Cell culture flasks and 384-well microplates were acquired from VWR (Radnor, Pa., USA).
BRD9 degradation was determined based on quantification of luminescent signal using Nano-Glo® HiBiT Lytic Assay kit. Test compounds were added to the 384-well plate from a top concentration of 10 μM with 11 points, half log titration in duplicates. […] BRD7 and BRD4 degradation was similarly determined with 293T.167 cells and 293T.92 cells, respectively. […] Luminescence was acquired on EnVision™ Multilabel Reader (PerkinElmer, Santa Clara, Calif., USA).
A general note: HiBiT is a short tag that completes a luciferase, so light tracks the accessible tagged protein.

Consider `COc1cc(-c2cn(C)c(=O)c3[nH]ncc23)cc(OC)c1CN1CCC(CC(=O)N2CCC(c3ccc(NC4CCC(=O)NC4=O)cc3)CC2)CC1` (stereo not shown), for which the DC50 – broadly, the midpoint of the concentration-degradation curve – was less than 100 nM.
